Literature values, collected in paper PMC3046303.

Protein sequences, listed by entry. Tags and fused reporters are not part of them. Residues count along the entry.
UniProt P02708, 21-457: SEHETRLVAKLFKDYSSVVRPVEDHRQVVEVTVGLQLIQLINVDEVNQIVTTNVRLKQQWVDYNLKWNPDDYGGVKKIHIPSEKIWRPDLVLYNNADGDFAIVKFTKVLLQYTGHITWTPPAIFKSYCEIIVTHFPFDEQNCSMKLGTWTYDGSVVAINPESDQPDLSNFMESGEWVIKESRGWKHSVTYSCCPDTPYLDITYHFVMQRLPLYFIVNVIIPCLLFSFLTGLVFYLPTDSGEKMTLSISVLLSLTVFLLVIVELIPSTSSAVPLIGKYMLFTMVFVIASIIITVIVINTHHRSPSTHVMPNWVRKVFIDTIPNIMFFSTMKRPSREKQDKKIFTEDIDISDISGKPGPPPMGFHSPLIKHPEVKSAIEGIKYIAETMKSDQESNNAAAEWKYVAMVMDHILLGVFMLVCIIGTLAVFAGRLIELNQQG

Target: acetylcholine receptor (AChR) (Homo sapiens) (UniProt P02708)

alpha-bungarotoxin (from UniProt P60615)
Kd: 0.26 nM
